The results in this text go back to ChEMBL document CHEMBL4229470, “Synthetic molecules for disruption of the MYC protein-protein interface” (Bioorg Med Chem, 2018).

Chains of the proteins cited; added tags and fusions are not shown. Lines headed by an entry give the natural chain unless they say otherwise; changes in a name come on top.
UniProt P01106: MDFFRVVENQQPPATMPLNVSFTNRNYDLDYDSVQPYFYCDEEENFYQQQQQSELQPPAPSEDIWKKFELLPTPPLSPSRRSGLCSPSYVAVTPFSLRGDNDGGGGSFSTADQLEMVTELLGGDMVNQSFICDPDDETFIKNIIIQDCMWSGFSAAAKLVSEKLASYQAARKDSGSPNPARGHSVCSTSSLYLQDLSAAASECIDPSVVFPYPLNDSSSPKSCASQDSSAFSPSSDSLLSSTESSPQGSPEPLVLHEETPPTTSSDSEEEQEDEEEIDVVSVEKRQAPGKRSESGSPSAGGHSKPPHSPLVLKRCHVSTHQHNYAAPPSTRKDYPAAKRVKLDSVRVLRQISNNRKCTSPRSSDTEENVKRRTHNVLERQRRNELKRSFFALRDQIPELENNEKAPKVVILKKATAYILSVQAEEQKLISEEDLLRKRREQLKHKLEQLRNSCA
UniProt P61244: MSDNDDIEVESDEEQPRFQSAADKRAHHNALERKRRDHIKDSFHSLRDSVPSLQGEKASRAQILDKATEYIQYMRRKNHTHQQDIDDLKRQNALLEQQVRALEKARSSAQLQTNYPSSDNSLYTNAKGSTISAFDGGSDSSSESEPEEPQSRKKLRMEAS

In this assay the target is c-Myc/Max (Homo sapiens) (UniProt P01106+P61244). Description: Binding affinity to His-tagged Myc/Max (unknown origin) expressed in Escherichia coli BL21 at 10 uM by Bio-FET analysis. A digest of the protocol:
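Bio-FET chip screening at 10 μM against monomeric MAX (mMAX), MYC-MAX and MAX-MAX dimers. Heterodimers stabilized by a disulfide through a C-terminal cysteine introduced into the MYC bHLH and MAX constructs.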

Calls of active or inactive are those of the source. The calls are words filed in the database; no cut-off is given here.

Regarding `NC(=O)c1ccc(-c2cc(-c3ccc([N+](=O)[O-])cc3)nc(-c3ccco3)c2)cc1`, the outcome was inactive.
